US9598503B2, “Methods and systems for polymer precipitation and generation of particles” (CERULEAN PHARMA INC., priority 2012, dated 2017)

Settings: filtrate (0.22 μm) of the water suspension after two hours of stirring

For Poly-CD-Glycine-Docetaxel [CDP No. 1], the “PS Zave” value (CDP No. 1:Celite ratio 1:10 w/w) was 24 nm and the “PS Zave” value (CDP No. 1:Celite ratio 1:15 w/w) was 25 nm.

Like-named read-outs stand apart in the source and are kept apart here.
